Screening results deposited in PubChem by National Center for Advancing Translational Sciences (NCATS).
The list is not random: actives were taken first. Their share in the collection is about 0.66%.
Rango complex inh: Rango-importin beta binding inhibition | Q14974 | Rango CFP/YFP FRET sensor + importin beta, 45 min | Potency, µM (titrated, usually from 92.2 µM), for inactives: at the top dose inhibition of complex formation | 340,000 tested, 0.031% active;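 also: 0% = DMSO wells and 100% = buffer wells lacking importin beta; nearly all actives have a fitted effect of over 15% in size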
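FRET biosensor (snurportin 1 IBB flanked by EYFP and cerulean), 50 nM, with compound 5 min, then 0.125 microM importin beta in PBS, 1 mM DTT, 0.02% Tween-20, 0.1% BSA. CFP/YFP ratio read after 45 min at room temperature; pre-read flags interference.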
Rango release inh: prevents RanGTP from dissociating the Rango-importin beta complex. Biochemical FRET Rango-importin beta, RanGTP-induced dissociation. 340,000 tested, 0.071% active. O95149+P62826. AID 540253. Potency, µM (doses to about 46.1 µM), for inactives: at the highest dose activity change, negative = inhibition; also: % of control where 0% means no effect; nearly all actives have a fitted effect of over 45% in size
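Quantitative HTS using a FRET biosensor: 0.1 uM Rango, 0.25 uM importin beta, 0.6 uM Ran, 2 mM GTP, 0.2 uM RCC1 final, PBS with DTT, Tween-20 and BSA. Post-read taken 45 min after Ran addition.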
gsp ag: agonists of gsp mutant (McCune-Albright syndrome); Potency, µM (highest dose often 76.9 µM), for the others: top-dose activation (cAMP increase), usual class: activators; gsp mutant cells, cAMP HTRF, 30 min; AID 624287; 340,000 tested, 0.13% active; active = well fitted activation curve with a large enough effect; inconclusive = small, poorly fitted or top-dose-only effect, or another doubt; inactive = no such curve, though single readings can be large or run the other way; cell line not stated here;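 also: phosphodiesterase inhibitor Ro 20-1724 added with compounds to block cAMP breakdown; nearly all actives have a fitted effect of over 60% in size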
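Cells stably selected in G418 were plated at 2000/well, grown 16-24 hr, then given compounds in DMSO with the PDE inhibitor […] (300 uM solution added) for 30 min at 37C; cAMP was read by HTRF.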
gsp antagonist: antagonists of gsp mutant (McCune-Albright syndrome); gsp-mutant cells, cAMP HTRF, 30 min; Potency, µM (titrated, usually from 76.9 µM), without a hit: at the top dose activity change, negative = inhibition, most hits filed as inhibitors; 340,000 tested, 0.4% active; AID 624288; calls by dose curve; cell line not stated here;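 also: intracellular cAMP measured with PDE inhibitor Ro 20-1724 present during compound exposure; % is scaled to controls: 0 for no effect and ±100 for the full control effect; nearly all actives have a fitted effect of over 65% in size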
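Measurement of cellular cAMP by homogeneous time-resolved fluorescence following a 30 min compound exposure at 37C. The PDE inhibitor […] was present throughout; the assay buffer was DPBS with 0.05% BSA and 0.005% Tween 20.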
Active calls of the source: *; ? = inconclusive; . = no result given; + = active, no number; [ ] = another dose, or the depositor's remark. Unless noted, calls follow the shape of the full dose curve. Potency is read from the fitted curve at half-maximal effect.

1) CC(NC(=O)c1cccc(S(=O)(=O)N2CCN(Cc3ccccc3)CC2)c1)c1ccccc1Cl (stereo not drawn)
2) CCCCCCCN(c1ccccc1)[C@@H]1C[C@H]2CCCC(=O)N3CC[C@@H](C1)[C@@H]23
3) CCN(CC)S(=O)(=O)c1ccc(C(O)=C(C#N)c2nc3ccccc3n2C)cc1
4) O=[N+]([O-])c1ccc(S(=O)(=O)Nc2ccc(-c3ccc(N4CCCC4)nn3)cc2)cc1
5) O=[N+]([O-])c1ccc(Cl)c(S(=O)(=O)Nc2ccc(-c3ccc(N4CCCC4)nn3)cc2)c1
6) CCN(CC)S(=O)(=O)c1ccc(O)c(NC(=O)c2cc(-c3cc(OC)c(OC)c(OC)c3)nc3ccccc23)c1
7) COC(=O)c1sc(N2C(=O)C(O)=C(C(=O)c3ccc(C)o3)C2c2ccc(OC)c(OC)c2)nc1C (stereo not drawn)
8) CCOC(=O)c1sc(N2C(=O)C(O)=C(C(=O)c3ccc(C)o3)C2c2ccc(OC)c(OC)c2)nc1C (stereo not drawn)

entry no. | 1 | 2 | 3 | 4 | 5 | 6 | 7 | 8
Rango complex inh | 0% | -1% | 0% | -3% | 6% | -4% | ? | ?
Rango release inh | -8% | ? | -18% | -18% | 7% | 2% | ? | ?
gsp ag | -72% | . | -11% | 4% | -1%[15.4 µM] | ? | 3.5µM* | ?
gsp antagonist | + | -12% | -2% | 20µM* | ? | 35µM* | 10% | 9%

9) Cc1cccc(NC(=O)C(=O)NCC2CCCN2S(=O)(=O)c2cccs2)c1 (stereo not drawn)
10) C[C@H](CO)N1C[C@H](C)[C@@H](CN(C)Cc2cccc(F)c2)Oc2cc(-c3cccc(C#N)c3)ccc2S1(=O)=O
11) CCCc1nc(SCC(=O)c2ccccc2)c2c(=O)n(C)c(=O)n(C)c2n1
12) C/C(=N/N=C/c1ccccc1O)c1ccccc1O
13) CC1CN(C2CCCCC2)C(=O)NC1=O (stereo not drawn)
14) C[C@H]1CN([C@@H](C)CO)S(=O)(=O)c2ccc(Br)cc2O[C@@H]1CN(C)Cc1cccc(F)c1
15) CCOC(=O)c1ccc(CC(=O)c2ccc(O)cc2O)o1
16) CCOC(=O)N1CCN(CC(=O)c2ccc(O)cc2O)CC1

entry no. | 9 | 10 | 11 | 12 | 13 | 14 | 15 | 16
Rango complex inh | . | . | 4% | 37µM* | 14% | . | ? | 2%
Rango release inh | . | . | -2% | ? | 8% | . | -20% | -4%
gsp ag | -4% | -1% | -52% | ? | -13% | -2% | 15% | 3%
gsp antagonist | . | . | 35µM* | 6% | 15% | . | 8.9µM* | 11µM*

17) Cc1ccc(NC(=O)CSc2nnc(NC3CC3)s2)cc1S(=O)(=O)N1CCOCC1
18) Cc1noc(NS(=O)(=O)c2ccc(N/C=C/C(=O)c3ccncc3)cc2)c1C
19) Cc1noc(NS(=O)(=O)c2ccc(N/C=C\C(=O)c3ccncc3)cc2)c1C
20) Cc1ccc(/C=C2\Sc3ccccc3C2=O)s1
21) CC(=O)Nc1ccc(/C=C2\Sc3ccccc3C2=O)cc1
22) Cn1c(=O)c([N+](=O)[O-])c(Cl)c2ccccc21
23) CCN(CC)c1c([N+](=O)[O-])c(=O)n(C)c2ccccc12
24) COCCCn1c(=O)/c(=C\c2cccc(OC)c2OC)s/c1=C(/C#N)C(=O)Nc1ccc(C(=O)O)cc1

entry no. | 17 | 18 | 19 | 20 | 21 | 22 | 23 | 24
Rango complex inh | . | 0% | ? | ? | ? | 0% | 1% | ?
Rango release inh | . | 7% | -4% | 2.9µM* | ? | 31% | 1% | ?
gsp ag | -24% | ? | 20µM* | 24% | -3%[15.4 µM] | -2%[15.4 µM] | -9%[15.4 µM] | 0%
gsp antagonist | . | 16% | 22% | -17% | -10% | 28µM* | -8% | 14µM*

Ordered by the number under Rango complex inh (high to low): some entries from above.
5) O=[N+]([O-])c1ccc(Cl)c(S(=O)(=O)Nc2ccc(-c3ccc(N4CCCC4)nn3)cc2)c1
16) CCOC(=O)N1CCN(CC(=O)c2ccc(O)cc2O)CC1
1) CC(NC(=O)c1cccc(S(=O)(=O)N2CCN(Cc3ccccc3)CC2)c1)c1ccccc1Cl (stereo not drawn)
2) CCCCCCCN(c1ccccc1)[C@@H]1C[C@H]2CCCC(=O)N3CC[C@@H](C1)[C@@H]23

entry no. | 5 | 16 | 1 | 2
Rango complex inh | 6% | 2% | 0% | -1%
Rango release inh | 7% | -4% | -8% | ?
gsp ag | -1%[15.4 µM] | 3% | -72% | .
gsp antagonist | ? | 11µM* | + | -12%

New compounds follow:
25) Cc1c(C(=O)N2CCCCC2C)sc2ncnc(N3CCc4ccccc4C3)c12 (stereo not drawn)
26) CCN(CC)C(=O)c1nc(-c2cccc3ccccc23)no1
27) N#CC1=C(N)SC(N)=C(C#N)C1c1cccc(Oc2ccccc2)c1
28) COc1ccc(/C=C2/SC(=S)N(c3ccc(S(=O)(=O)Nc4nccs4)cc3)C2=O)cc1
29) O=C1/C(=C\c2ccccn2)SC(=S)N1c1ccc(S(=O)(=O)Nc2nccs2)cc1
30) Cc1ccc(/C=C2/SC(=S)N(c3ccc(S(=O)(=O)Nc4nccs4)cc3)C2=O)cc1
31) Cc1ccc(Oc2ccc3c(c2)C(=O)N(c2ccc(S(=O)(=O)Nc4nccs4)cc2)C3=O)cc1
32) COc1ccc(/C=C2\SC(=O)N(CCC(=O)Nc3ccc(S(=O)(=O)Nc4nccs4)cc3)C2=O)cc1

entry no. | 25 | 26 | 27 | 28 | 29 | 30 | 31 | 32
Rango complex inh | 6% | . | 6% | 0% | -1% | -4% | -1% | 0%
Rango release inh | -22% | . | ? | -6% | 11% | -18% | 5% | 4%
gsp ag | 6%[15.4 µM] | 0% | 25% | 9%[15.4 µM] | 0%[15.4 µM] | 2%[15.4 µM] | 38% | 0%[15.4 µM]
gsp antagonist | 11µM* | . | 28µM* | 32µM* | 40µM* | 32µM* | ? | -19%

33) CC(=O)NC(CSc1cc(C)nc2ccc(Br)cc12)C(=O)O (stereo not drawn)
34) COc1ccc2nc(C)cc(SCC(NC(C)=O)C(=O)OC(C)C)c2c1 (stereo not drawn)
35) CC(=NO)C1(C)CC=CCC1CO (stereo not drawn)
36) C[C@@H]1CN([C@H](C)CO)C(=O)c2cc(-c3ccc(C(=O)N(C)C)cc3)cnc2O[C@@H]1CN(C)C(=O)c1cccnc1
37) Cc1ccc(C(C)C)cc1-n1nnc(-c2cccc(Cc3ccc4ccccc4c3)c2)c1C(C)O (stereo not drawn)
38) Cc1cccc(N2CCN(C(=O)C3CCN(c4ncnc5c4nc4n5CCCCC4)CC3)CC2C)c1 (stereo not drawn)
39) COc1ccc(C2CCc3cc4c(cc3C2=NOC(C)=O)OCO4)cc1OC (stereo not drawn)
40) Cc1ccc(-c2nn(-c3ccccc3)cc2/C=C/C(=O)OCC(=O)NC2CC2)o1

entry no. | 33 | 34 | 35 | 36 | 37 | 38 | 39 | 40
Rango complex inh | 0% | -2% | . | . | . | -4% | . | ?
Rango release inh | 1% | -19% | . | . | . | -19% | . | -2%
gsp ag | 2.8µM* | ? | -27% | 3% | 6% | 26% | -13% | 26%
gsp antagonist | 25% | -5% | . | . | . | 40µM* | . | 50µM*

41) CNC(=O)COC(=O)/C=C/c1cn(-c2ccccc2)nc1-c1ccc2c(c1)OCCO2
42) Cc1c(C(=O)N2CCOCC2)sc(NC(=O)c2ccc([N+](=O)[O-])cc2)c1C#N
43) CC1CCCCN1C(=O)c1cccc(NC2=C(Cl)C(=O)N(Cc3ccccc3)C2=O)c1 (stereo not drawn)
44) CCCCNC(=O)/C(C#N)=C/c1ccc(F)cc1F
45) COCCCNC(=O)/C(C#N)=C/c1ccc(F)cc1
46) COc1ccc(C(=O)N(C)[C@H]2C[C@H]3c4[nH]c5ccccc5c4CCN3C(=O)[C@H]2CO)cc1
47) CC(=O)OCCN1c2ccccc2Sc2cnccc21
48) CC(=O)OCCCN1c2ccccc2Nc2nnc(-c3ccccc3)cc21
49) CCN(CC)Cc1cc(Nc2c3ccccc3nc3c4ccccc4n(C)c23)cc(CN(CC)CC)c1O
50) O=C(Nc1ccc2c3c(cccc13)CC2)c1ccccc1
51) CN(C)c1ccc(N/C=C/C(=O)C(C)(C)C)cc1

entry no. | 41 | 42 | 43 | 44 | 45 | 46 | 47 | 48 | 49 | 50 | 51
Rango complex inh | 2% | -2% | ? | 5% | -4% | . | . | 3% | ? | . | 3%
Rango release inh | 13% | 7% | -10% | ? | 9% | . | . | 9% | ? | . | -12%
gsp ag | 2%[15.4 µM] | 19%[15.4 µM] | -5% | -1%[15.4 µM] | 30%[15.4 µM] | -5% | -2% | -11% | 14% | -21% | -3%
gsp antagonist | -5% | 35µM* | 28µM* | 11µM* | 4% | . | . | 40µM* | -23% | . | 35µM*
